In PMC2577155 (The Journal of neuroscience : the official journal of the …, 2008):

Test system: NMDA receptor currents in CA1 hippocampal pyramidal cells

Structure (SMILES): Cc1ccccc1CN1CCC(N2CCC(n3c(=O)[nH]c4ccccc43)CC2)CC1 [TBPB]
- peak amplitude of NMDAR currents, % of baseline (3 μM, approximately 8 min after initial application, n = 6): 135.1±5.8%
- peak potentiation of NMDA-evoked currents (TBPB 3 μM alone): 40.4±6.4%
- peak potentiation of NMDA-evoked currents (TBPB 3 μM in combination with atropine 1 μM, n = 5): 5.1±5.8%

Where two headings read alike, the source gives them in different places.
